Data taken from PubChem BioAssay AID720707 (National Center for Advancing Translational Sciences (NCATS), 2013).
The list shows a part of the results, in another mix than the full data. Some structures show a salt or complex split into parts, the way the source records it. Activity calls are given as the source filed them. Calls come from the whole dose curve; as a rule, active = well fitted activation curve with a large enough effect; inconclusive = small, poorly fitted or top-dose-only effect; inactive = no such curve, though single readings can be large or run the other way.

Protein sequences, listed by entry. Tags and fused reporters are not part of them.
UniProt O95398, whole entry: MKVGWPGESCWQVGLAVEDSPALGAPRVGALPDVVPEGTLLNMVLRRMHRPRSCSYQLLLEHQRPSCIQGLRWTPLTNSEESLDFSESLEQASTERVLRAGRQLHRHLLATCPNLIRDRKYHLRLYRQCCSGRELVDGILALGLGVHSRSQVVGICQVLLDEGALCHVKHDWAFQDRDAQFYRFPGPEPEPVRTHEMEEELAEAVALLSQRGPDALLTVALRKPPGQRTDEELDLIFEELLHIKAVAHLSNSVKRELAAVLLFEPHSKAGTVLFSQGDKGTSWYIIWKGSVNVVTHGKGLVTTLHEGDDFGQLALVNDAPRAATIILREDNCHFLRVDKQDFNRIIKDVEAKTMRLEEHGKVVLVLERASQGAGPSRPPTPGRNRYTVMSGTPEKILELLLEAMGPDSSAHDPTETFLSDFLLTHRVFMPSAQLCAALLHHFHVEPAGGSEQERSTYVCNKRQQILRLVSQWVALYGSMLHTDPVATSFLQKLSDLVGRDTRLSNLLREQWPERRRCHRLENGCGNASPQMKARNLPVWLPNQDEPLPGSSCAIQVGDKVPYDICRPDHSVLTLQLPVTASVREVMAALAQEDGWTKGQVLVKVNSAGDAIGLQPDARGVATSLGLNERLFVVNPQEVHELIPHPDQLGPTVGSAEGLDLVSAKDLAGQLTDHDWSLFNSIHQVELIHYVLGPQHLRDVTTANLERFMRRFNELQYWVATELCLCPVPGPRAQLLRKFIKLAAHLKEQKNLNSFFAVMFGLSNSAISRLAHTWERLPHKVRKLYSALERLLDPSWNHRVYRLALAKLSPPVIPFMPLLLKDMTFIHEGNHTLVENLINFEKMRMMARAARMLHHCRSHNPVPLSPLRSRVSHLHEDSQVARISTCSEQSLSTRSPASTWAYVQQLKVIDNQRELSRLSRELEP

molecular target: Rap guanine nucleotide exchange factor 3 (Homo sapiens) (UniProt O95398); test: qHTS for Agonist of cAMP-regulated guanine nucleotide exchange factor 3 (EPAC1): primary screen; details: biochemical assay; at 154 µM (top of the series), 100% = response to 6.5 mM cAMP unless noted; note: nearly all actives have a fitted effect of over 60% in size
From the text: In multi-cellular eukaryotic organisms, the effects of cAMP are transduced by two ubiquitously-expressed intracellular cAMP receptors, the classic protein kinase A/cAMP-dependent protein kinase (PKA/cAPK) and the more recently discovered exchange protein directly activated by cAMP/cAMP-regulated guanine nucleotide exchange factor (EPAC/cAMP-GEF). Both PKA and EPAC are ubiquitously expressed in all tissues, and an increase in intracellular cAMP levels will lead to the activation of both PKA and EPAC. Therefore, careful dissections of the individual role and relative contribution of EPAC and PKA within the overall cAMP signaling in various model systems are critical for further elucidating the mechanism of cAMP signaling. To date no EPAC-specific antagonists and agonist, as well as isoform-specific agonists have been reported, and developing EPAC-specific pharmacological probes to determine the physiological functions that EPAC play in the overall cAMP-mediated signaling remains a major challenge within the research field. Furthermore, identified regulators of EPAC may lead to new mechanism-based therapeutic strategies specifically targeting the EPAC / cAMP-signaling components as EPAC has been implicated to play important roles in major human pathological conditions such as diabetes, heart disease, and cancer.
This qHTS will be used to screen the Molecular Libraries Small Molecule Repository (MLSMR) as a concentration-titration series using the NCGC unique quantitative screening (qHTS) platform to find activators for EPAC1. In addition, this assay will also be used as a counterscreen for the EPAC2 qHTS. This fluorescent based assay is developed and validated for EPAC1 that measures exchange using EPAC effector Rap1 complex with BODIPY-GDP, a GDP analog with a tethered fluorophores. Activators are identified by monitoring the change in fluorescence signal as the exchanged free BODIPY-GDP has a reduced fluorescence compared to Rap1-bound BODIPY-GDP. Increase in signal (activation) is the desired outcome for the EPAC1 agonist while no activity in this assay is desired for the EPAC2 agonist counterscreen.
[1] de Rooij, J., Zwartkruis, F. J., Verheijen, M. H., Cool, R. H., Nijman, S. M., Wittinghofer, A., and Bos, J.L. (1998) Nature 396, 474-477
NIH Chemical Genomics Center [NCGC]
NIH Molecular Libraries Probe Centers Network [MLPCN]
Assay Submitter (PI): Xiaodong Cheng, The University of Texas Medical Branch
Briefly, three uL of reagents (100 nM EPAC1, 250 nM RAP1B-BODIPY-GDP, 50 uM GDP) were dispensed into a 1536-well Greiner black solid-bottom medium binding assay plate. Controls and test compounds (23 nL) were transferred to the plate via a Kalypsys pin tool equipped with a 1536-pin array. The plates were centrifuged at 1,000 rpm for 15 seconds followed by 5 minute incubation at room temperature. The assay plates were read at 5 minute intervals for 30 minutes in the ViewLux plate reader using 480nm excitation and 540nm emission filters. The results were normalized to the agonist positive control of 6.5 mM cAMP.

Row | Compound | activation
1 | CCC(c1nnnn1C1CCCC1)N1CCC(n2c(=O)[nH]c3ccccc32)CC1 (centres undefined) | inactive: -6.3%
2 | COc1ccc(C(=O)NCC2(N3CCCCC3)CCCCC2)c(OC)c1OC | inactive: -3.27%
3 | CC(C)(C)OC(=O)N1CCC(N(C(=O)c2ccccc2)c2ccc(F)cc2)CC1 | inactive: 1.59%
4 | COc1ccc(C(=O)NCC2(N3CCCCC3)CCCCC2)cc1 | inactive: -0.522%
5 | CCCCn1nnnc1C(c1cccs1)N1CCC(n2c(=O)[nH]c3ccccc32)CC1 (centres undefined) | inactive: -7.31%
6 | CCCCn1nnnc1C(CC)N1CCC(n2c(=O)[nH]c3ccccc32)CC1 (centres undefined) | inactive: -0.766%
7 | O=C(NCC1(N2CCCCC2)CCCCC1)c1cccs1 | inactive: -27.7%
8 | O=C(NCC1(N2CCCCC2)CCCCC1)c1ccc(=O)[nH]c1 | inactive: -0.575%
9 | Cc1cccc(NC2(C#N)CCN(Cc3ccccc3)CC2)c1 | inactive: 0.377%
10 | CSc1ccccc1C(=O)NCC1(N2CCCCC2)CCCCC1 | inactive: 10.3%
11 | Cc1cc(C)cc(N(C(=O)c2ccccc2)C2CCN(C(=O)OC(C)(C)C)CC2)c1 | inactive: 1.15%
12 | O=c1[nH]c2ccccc2n1C1CCN(C(c2ccccc2OC(F)(F)F)c2nnnn2C2CCCCC2)CC1 (centres undefined) | inactive: 0.471%
13 | O=C(NCC1(N2CCCCC2)CCCCC1)c1ccc(Cl)nc1 | inactive: -13.6%
14 | O=C(NCC1(N2CCOCC2)CCCCC1)c1cc2ccccc2o1 | inactive: 4.42%
15 | O=C1C(O)=C([N+](=O)[O-])C(=O)C(O)=C1[N+](=O)[O-] | inactive: 0.141%
16 | COc1ccc(Cl)cc1C(=O)NCC1(N2CCOCC2)CCCCC1 | inactive: 1.69%
17 | O=c1[nH]c2ccccc2n1C1CCN(C(c2cc3ccccc3o2)c2nnnn2C2CCCCC2)CC1 (centres undefined) | inactive: -9.01%
18 | O=C(OC1CN2CCC1CC2)C1c2ccccc2Oc2ccccc21 (centres undefined) | inactive: -6.41%
19 | O=C(NCC1(N2CCCCC2)CCCCC1)c1ccc(Cl)s1 | inactive: -0.0415%
20 | N#CC1(Nc2ccccc2)CCN(Cc2ccccc2)CC1 | inactive: 1.18%
21 | CCCCn1nnnc1C(c1ccc(OC)cc1)N1CCC(n2c(=O)[nH]c3ccccc32)CC1 (centres undefined) | inactive: -4.4%
22 | CCOC(=O)N1CCC(Nc2ccc(OC)cc2)CC1 | inactive: 8.86%
23 | O=C1CCN(Cc2ccccc2)CC1 | inactive: -17.1%

Row | Compound | activation
24 | CC(C)(C)n1nnnc1C(c1ccccc1)N1CCC(n2c(=O)[nH]c3ccccc32)CC1 (centres undefined) | inactive: -4.37%
25 | CCOc1ccc(C)cc1CN(CCCl)CCCl | inactive: -1.16%
26 | CCOC(=O)N1CCC(Nc2ccc(F)cc2)CC1 | inactive: 9.93%
27 | COc1ccc(NC2CCN(CCc3ccccc3)CC2)c(OC)c1 | inactive: 3.13%
28 | O=C(NCC1(N2CCCCC2)CCCCC1)c1ccc(F)cc1 | inactive: 8.98%
29 | CCCCOc1ccc(C(=O)NCC2(N3CCOCC3)CCCCC2)cc1 | inactive: -0.35%
30 | CCCCn1nnnc1C(c1cc2ccccc2o1)N1CCC(n2c(=O)[nH]c3ccccc32)CC1 (centres undefined) | inactive: -7.09%
31 | O=P1(N(CCCl)CCCl)SCCCS1 | inactive: 12.5%
32 | O=c1[nH]c2ccccc2n1C1CCN(C(c2ccccc2)c2nnnn2C2CCCCC2)CC1 (centres undefined) | inactive: 3.21%
33 | COc1cc(C(=O)NCC2(N(C)C)CCCCC2)ccc1OC(F)F | inactive: -1.05%
34 | CCOC(=O)N1CCC(Nc2cccc(C)c2)CC1 | inactive: 2.7%
35 | O=c1[nH]c2ccccc2n1C1CCN(C(c2cccc3ccccc23)c2nnnn2C2CCCC2)CC1 (centres undefined) | inactive: -2.71%
36 | O=C(NCC1(N2CCCCC2)CCCCC1)c1ccc(OC(F)F)cc1 | inactive: 1.99%
37 | CC(C)(C)n1nnnc1C(c1ccccc1OC(F)(F)F)N1CCC(n2c(=O)[nH]c3ccccc32)CC1 (centres undefined) | inactive: -7.97%
38 | N#CC1(Nc2ccccc2)CCN(CCc2ccccc2)CC1 | inactive: -0.262%
39 | O=c1[nH]c2ccccc2n1C1CCN(C(c2ccccc2OC(F)(F)F)c2nnnn2C2CCCC2)CC1 (centres undefined) | inactive: -18.4%
40 | CCN1CCC(Nc2ccc(Cl)cc2)CC1 | inactive: 11.1%
41 | O=C(NCC1(N2CCCCC2)CCCCC1)c1cccc([N+](=O)[O-])c1 | inactive: -7.62%
42 | CSc1ccc(C(=O)NCC2(N3CCOCC3)CCCCC2)cc1 | inactive: 2.79%
43 | O=[N+]([O-])c1cc([N+](=O)[O-])c(NCC2CCS(=O)(=O)C2)c([N+](=O)[O-])c1 (centres undefined) | inactive: 0.0402%
44 | O=C(NCC1(N2CCCCC2)CCCCC1)c1cccc(C(F)(F)F)c1 | inactive: 6.46%
45 | O=C(NCC1(N2CCOCC2)CCCCC1)c1cc(=O)[nH]c2ccccc12 | inactive: 17.2%
46 | COc1cc(C(=O)NCC2(N3CCCCC3)CCCCC2)ccc1OC(F)F | inactive: -7.51%

Row | Compound | activation
47 | CCCCn1nnnc1C(c1cccc2ccccc12)N1CCC(n2c(=O)[nH]c3ccccc32)CC1 (centres undefined) | inactive: 2.59%
48 | COc1ccc(NC2CCN(C(=O)OC(C)(C)C)CC2)cc1 | inactive: 3.67%
49 | CC(C)c1ccc(C(=O)NCC2(N3CCOCC3)CCCCC2)cc1 | inactive: 2.92%
50 | CN1CCN(CCOC(=O)C(O)(c2ccccc2)c2ccccc2)CC1 | inactive: 5.41%
51 | CCCCn1nnnc1C(c1ccccc1OC(F)(F)F)N1CCC(n2c(=O)[nH]c3ccccc32)CC1 (centres undefined) | inactive: -18.7%
52 | CC(C)c1ccc(NC2CCN(C(=O)OC(C)(C)C)CC2)cc1 | inactive: -13.4%
53 | CN(C)c1cccc(C(=O)NCC2(N3CCCCC3)CCCCC2)c1 | inactive: -6.07%
54 | O=[N+]([O-])c1cc([N+](=O)[O-])c(OC2CCCCC2O)c([N+](=O)[O-])c1 (centres undefined) | inactive: -4.4%
55 | COc1ccc(CN(CCCl)CCCl)cc1Cl | inactive: -7.02%
56 | CCN(CC)CCCNc1ccccc1[N+](=O)[O-].O=[N+]([O-])c1cc([N+](=O)[O-])c(O)c([N+](=O)[O-])c1 | inactive: 13.3% [at 76.9 µM]
57 | CCC(c1nnnn1C(C)(C)C)N1CCC(n2c(=O)[nH]c3ccccc32)CC1 (centres undefined) | inactive: -7.4%
58 | O=C(NCC1(N2CCOCC2)CCCCC1)c1cc(F)c(F)cc1Cl | inactive: -1.71%
59 | COc1cc(OC)c(C(=O)NCC2(N(C)C)CCCCC2)cc1OC | inactive: 3.38%
60 | CCCCn1nnnc1C(c1ccnc2ccccc12)N1CCC(n2c(=O)[nH]c3ccccc32)CC1 (centres undefined) | inactive: -3.05%
61 | O=C(OC1CN2CCC1CC2)c1ccc([N+](=O)[O-])cc1 (centres undefined) | inactive: -0.902%
62 | O=C(NCC1(N2CCCCC2)CCCCC1)c1cncc(Br)c1 | inactive: 9.57%
63 | COc1ccc2c(c1O)-c1c(O)c(OC)cc3c1[C@H](C2)[N+](C)(C)CC3.O=[N+]([O-])c1cc([N+](=O)[O-])c([O-])c([N+](=O)[O-])c1[O-] | inactive: -1.66%
64 | CN1CCC(Nc2cccc(F)c2)CC1 | inactive: -1.7%
65 | COc1ccc(C(c2nnnn2C2CCCC2)N2CCC(n3c(=O)[nH]c4ccccc43)CC2)cc1 (centres undefined) | inactive: -4.16%
66 | O=[N+]([O-])c1cc([N+](=O)[O-])c(Nc2ccc(Cl)cc2)c([N+](=O)[O-])c1 | inactive: 12.1%
67 | CCCOc1ccc(C(=O)NCC2(N(C)C)CCCCC2)cc1OC | inactive: 6.19%
68 | Cc1ccc(C(=O)NCC2(N(C)C)CCCCC2)o1 | inactive: -13.1%
69 | COc1cc(C(=O)NCC2(N3CCOCC3)CCCCC2)cc(OC)c1C | inactive: 3.69%

Row | Compound | activation
70 | CCCCn1nnnc1C(c1ccccc1)N1CCC(n2c(=O)[nH]c3ccccc32)CC1 (centres undefined) | inactive: -4.47%
71 | O=C(NCC1(N2CCOCC2)CCCCC1)c1cc(Br)ccc1Cl | inactive: -0.583%
72 | O=c1[nH]c2ccccc2n1C1CCN(C(c2cccs2)c2nnnn2C2CCCCC2)CC1 (centres undefined) | inactive: 7.58%
73 | O=c1[nH]c2ccccc2n1C1CCN(C(c2ccnc3ccccc23)c2nnnn2C2CCCC2)CC1 (centres undefined) | inactive: 10.1%
74 | COc1ccc(C(=O)NCC2(N3CCOCC3)CCCCC2)cc1OC | inactive: -3.4%
75 | COc1cccc(C(c2nnnn2C(C)(C)C)N2CCC(n3c(=O)[nH]c4ccccc43)CC2)c1OC (centres undefined) | inactive: 16.2%
76 | CCOC(=O)N1CCC(Nc2ccc(C)cc2)CC1 | inactive: -2.96%
77 | N/C(=N\O)c1c(N)no[n+]1[O-] | inactive: -3.48%
78 | O=c1[nH]c2ccccc2n1C1CCN(C(c2cccs2)c2nnnn2C2CCCC2)CC1 (centres undefined) | inactive: 0.502%
79 | O=C(O)c1cccc(Nc2c([N+](=O)[O-])cc([N+](=O)[O-])cc2[N+](=O)[O-])c1 | inactive: 7.39%
80 | O=C(OC1CN2CCC1CC2)C1c2ccccc2C=Cc2ccccc21 (centres undefined) | inactive: -8.56%
81 | CCc1cc(C(=O)NCC2(N3CCCCC3)CCCCC2)sc1C | inactive: -4.05%
82 | CCCCn1nnnc1C(c1cccc(OC)c1OC)N1CCC(n2c(=O)[nH]c3ccccc32)CC1 (centres undefined) | inactive: -0.629%
83 | N#Cc1ccc(C(=O)NCC2(N3CCCCC3)CCCCC2)cc1 | inactive: 1.24%
84 | CC(C)(C)OC(=O)N1CCC(N(C(=O)c2ccccc2)c2ccc(Cl)cc2)CC1 | inactive: -14.4%
85 | CCOC(=O)C(CC)C1=NC(C)(C)Cc2ccccc21.O=[N+]([O-])c1cc([N+](=O)[O-])c(O)c([N+](=O)[O-])c1 (centres undefined) | inactive: 8.89%
86 | CN(C)C1(CNC(=O)c2cccc(C#N)c2)CCCCC1 | inactive: -4.85%
87 | CCCN1CCC(Nc2cc(OC)cc(OC)c2)CC1 | inactive: 2.93%
88 | O=c1[nH]c2ccccc2n1C1CCN(C(c2ccccc2)c2nnnn2C2CCCC2)CC1 (centres undefined) | inactive: 5.34%
89 | Cc1cc(N(CCCl)CCCl)ccc1C=O | inactive: -9.45%
